# Laboratory results taken from PubChem BioAssay AID493012 (Sanford-Burnham Center for Chemical Genomics, 2011).
# Sequences of proteins named here, by UniProt entry; tags and fusion partners are left off. A change or cut given only in a name is not applied to a line headed by its entry.
# UniProt Q9HC16: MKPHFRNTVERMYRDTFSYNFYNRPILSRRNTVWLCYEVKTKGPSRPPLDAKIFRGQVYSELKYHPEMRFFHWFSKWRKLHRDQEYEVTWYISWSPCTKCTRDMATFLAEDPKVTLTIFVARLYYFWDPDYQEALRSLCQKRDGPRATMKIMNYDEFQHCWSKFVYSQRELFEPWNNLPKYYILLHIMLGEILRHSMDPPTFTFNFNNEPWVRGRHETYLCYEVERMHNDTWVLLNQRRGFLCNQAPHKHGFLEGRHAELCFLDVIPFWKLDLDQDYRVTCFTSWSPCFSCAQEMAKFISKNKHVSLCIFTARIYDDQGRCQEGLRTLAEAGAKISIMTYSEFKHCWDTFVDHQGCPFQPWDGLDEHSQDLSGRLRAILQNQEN
# Only a part is listed here, and it is no random draw. Active and inactive are the calls of the source.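 How the source made its calls: active means inhibition of at least 40% at 20 µM, with no more than 30% in the related APOBEC3A deaminase screen; inactive means the rest.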
# Target: DNA dC->dU-editing enzyme APOBEC-3G (Homo sapiens) (UniProt Q9HC16)
# Assay: inhibition of human A3G ssDNA deamination – biochemical, fluorescence, single-stranded DNA substrate, uHTS, primary screen (AID 493012);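 further: plate controls were DMSO wells with A3G for no effect and wells lacking A3G enzyme for full effect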
# Details: recombinant A3G, ssDNA deamination FAM/TAMRA fluorescence; at 20 µM; hits give high values
row,SMILES,inhibition
1,COc1ccccc1OP(=O)(Nc1ccc(C)cn1)Oc1ccccc1OC,inactive: -5.08%
2,Cc1ccc(OP(=O)(Nc2nccs2)Oc2ccc(C)cc2)cc1,inactive: -8.61%
3,CN1CCCC(OC(=O)C(c2ccccc2)c2ccccc2)C1 (centres undefined),inactive: -5.23%
4,Clc1ccc(Cl)c(NC2=NCC(CBr)S2)c1 (centres undefined),inactive: -6.8%
5,NC(=O)c1cc([N+](=O)[O-])cc([N+](=O)[O-])c1N,inactive: -5.62%
6,CN(C(=O)Cc1ccc(Cl)c(Cl)c1)[C@H]1CCCC[C@H]1N1CCCC1,inactive: -0.325%
7,Cc1ccc(N/C(=N/P(=O)(N2CCOCC2)N2CCOCC2)N2CCOCC2)cc1,inactive: -4.31%
8,Nc1cc(N)c2nonc2c1[N+](=O)[O-],inactive: -1.7%
9,CC(C)CC(=O)NC(Sc1ccc(Cl)cc1)C(Cl)(Cl)Cl (centres undefined),inactive: -5.09%
10,Oc1ccccc1CNc1ccccn1,inactive: -5.99%
11,O=C(NC(Sc1ccncn1)C(Cl)(Cl)Cl)c1ccccc1 (centres undefined),inactive: 26.4%
12,Cc1c2non([O-])c-2c(C)[n+](=O)[n+]1[O-],inactive: -0.912%
13,Cc1cc(SC(NC(=O)c2ccc(F)cc2)C(Cl)(Cl)Cl)ncn1 (centres undefined),inactive: 18.2%
14,CCOP(=O)(Nc1ccccc1)OCC,inactive: 5.87%
15,Cc1ccc(NP(=O)(Oc2ccccc2F)Oc2ccccc2F)nc1,inactive: -3.6%
16,CN(C(=O)Cc1ccc(Cl)c(Cl)c1)[C@H]1CCCC[C@@H]1N1CCCC1,inactive: -9.31%
17,CC(=O)Nc1ccc([As](=O)(O)O)cc1,inactive: -2.03%
18,O=C(O)c1ccccc1[As](=O)(O)O,inactive: 23.5%
19,O=P(Nc1nc2ccc(Cl)cc2s1)(c1ccccc1)c1ccccc1,inactive: -4.66%
20,CCN(N=Nc1nonc1N)c1nonc1N,inactive: -3.31%
21,O=[N+]([O-])c1cc([N+](=O)[O-])c(CCN2CCOCC2)c([N+](=O)[O-])c1,inactive: -0.003%
22,O=C(Nc1cc([As](=O)(O)O)ccc1O)c1ccccc1,inactive: -7.12%
23,O=[N+]([O-])c1cccc(NC2=NCC(CBr)S2)c1 (centres undefined),inactive: -8.53%
24,CC(C)(C)C(=O)NC(Sc1ccncn1)C(Cl)(Cl)Cl (centres undefined),inactive: 14.8%
25,O=[N+]([O-])c1ncn(CCn2ncnc2[N+](=O)[O-])n1,inactive: -8.45%

row,SMILES,inhibition
1,O=[N+]([O-])c1cccc2n[nH]nc12,inactive: -1.38%
2,CC(=O)N1C2C3N(C(C)=O)C1C1N(C(C)=O)C(C(N1C(C)=O)N3C(C)=O)N2C(C)=O,inactive: -4.49%
3,Cc1ccc(NP(=O)(Oc2ccccc2)Oc2ccccc2)nc1,inactive: -0.54%
4,CCc1nc2c(n1)c1c(non1O)c1c2no[n+]1[O-],inactive: -5.9%
5,O=[N+]([O-])c1cc([N+](=O)[O-])c(CCNc2ccccc2)c([N+](=O)[O-])c1,inactive: 0.621%
6,COc1ccc(C2=NCC(CBr)S2)cc1 (centres undefined),inactive: -1.05%
7,CC(C)=N/N=C(\N)N[N+](=O)[O-],inactive: 0.863%
8,CN(C)C(=O)OCCc1n(C)cc[n+]1C,inactive: -6.64%
9,CC1CCN(C(=O)Oc2c(Cl)cc(Cl)c3cccnc23)CC1,inactive: 2.63%
10,Nc1ccc([As](=O)(O)c2ccc(N)cc2)cc1,inactive: 3.22%
11,C[N+]1=C2C=CC=CC=C2SC12C([N+](=O)[O-])=CC([N+](=O)[O-])=C[C-]2[N+](=O)[O-] (centres undefined),inactive: 58.6%
12,CCN(/C(=N/P(=O)(N1CCOCC1)N1CCOCC1)N1CCOCC1)c1ccc(OC)cc1,inactive: -4.3%
13,c1nnnn1CCn1cnnn1,inactive: -5.35%
14,CC(C)C(=O)NC(Sc1ccccc1)C(Cl)(Cl)Cl (centres undefined),inactive: -4%
15,O=P(Nc1nccs1)(c1ccccc1)c1ccccc1,inactive: 1.01%
16,O=P(Nc1nc2ccccc2s1)(c1ccccc1)c1ccccc1,inactive: -1.28%
17,C[C@H]1OP(=O)(Oc2ccccc2)[C@H](O)[C@H](O)[C@H]1N=[N+]=[N-] (some centres undefined),inactive: -9.12%
18,O=P(Nc1ccccn1)(c1ccc(Br)cc1)c1ccc(Br)cc1,inactive: -7.79%
19,CN(C)C1(CNC(=O)c2ccc(Cl)c(S(N)(=O)=O)c2)CCCCC1,inactive: -3.48%
20,C(Cc1nn[nH]n1)Cc1nn[nH]n1,inactive: -4.08%
21,O=C(OC1CN2CCC1CC2)c1cccc(Cl)c1 (centres undefined),inactive: -1.54%
22,O=[N+]([O-])c1ncn(CCn2cnc([N+](=O)[O-])n2)n1,inactive: -2.08%
23,CCNC(=S)/N=C(\N)N[N+](=O)[O-],inactive: -12.1%
24,O=C(NC1CCS(=O)(=O)C1)NP(=S)(Oc1ccccc1)Oc1ccccc1 (centres undefined),inactive: -2.26%
25,c1ccc(-c2nn[nH]n2)c(-c2nn[nH]n2)c1,inactive: -4.91%

row,SMILES,inhibition
1,CCOC(=O)NC(Sc1ccccc1)C(Cl)(Cl)Cl (centres undefined),inactive: -0.313%
2,Cc1ccc(NP(=O)(Oc2cccc(C)c2)Oc2cccc(C)c2)nc1,inactive: -7.79%
3,CC(NC(=O)COC(=O)C(O)(c1ccccc1)c1ccccc1)c1ccccc1 (centres undefined),inactive: 6.52%
4,Cc1ccccc1OP(=O)(Nc1ccccn1)Oc1ccccc1C,inactive: 1.46%
5,CN(C)C(=O)Oc1noc2ccccc12,inactive: 1.74%
6,COC(=O)c1cc2c(s1)N=C(c1ccccc1)N(C)P2(=O)N1CCOCC1 (centres undefined),inactive: 22.7%
7,CC(=O)NC(SC(=S)N(CC(C)C)CC(C)C)C(Cl)(Cl)Cl (centres undefined),inactive: -8.84%
8,O=C(OC1CN2CCC1CC2)c1ccccc1 (centres undefined),inactive: -9.56%
9,CCC(=O)N1C2C3N(C(=O)CC)C1C1N(C(=O)CC)C(C(N1C(=O)CC)N3C(=O)CC)N2C(=O)CC,inactive: 5.85%
10,CC(C)(C)C(=O)NC(Sc1ccccc1)C(Cl)(Cl)Cl (centres undefined),inactive: 8.31%
11,O=P1(Nc2nc3ccc(Cl)cc3s2)COc2ccccc2O1 (centres undefined),inactive: -3.5%
12,CCOc1ccc(C2=NCC(CBr)S2)cc1 (centres undefined),inactive: -10.4%
13,CC(=O)Nc1ccc([As](=O)(O)O)c(O)c1,inactive: -4.37%
14,CC(=O)Nc1ccc(Oc2c([N+](=O)[O-])cc([N+](=O)[O-])cc2[N+](=O)[O-])cc1,inactive: -0.951%
15,CC(=O)c1ccc(N2CC2c2ccncc2)cc1 (centres undefined),inactive: -2.7%
16,Cc1ccccc1CN(C)C(=O)COC(=O)C(O)(c1ccccc1)c1ccccc1,inactive: -7.91%
17,C[C@H]1OP(=O)(Oc2ccccc2)C[C@@H]2O[C@@H]21 (some centres undefined),inactive: -8.07%
18,C[C@@H]1C=CCP(=O)(Oc2ccccc2)O1 (some centres undefined),inactive: -2.34%
19,Cc1cccc(OCC(=O)OC2CN3CCC2CC3)c1 (centres undefined),inactive: -1.93%
20,O=[As](O)(c1cccc(O)c1)c1cccc(O)c1,inactive: -3.92%
21,O=[As](O)(O)c1cccnc1,inactive: -0.86%
22,COc1cc(C(=O)NCC2(N3CCOCC3)CCCCC2)cc(Cl)c1OC(C)C,inactive: 0.217%
23,CS(=O)(=O)c1ccc(Cl)c(NC(=O)COC(=O)C(O)(c2ccccc2)c2ccccc2)c1,inactive: -1.02%
24,O=C(OC1CN2CCC1CC2)c1ccc(Cl)cc1 (centres undefined),inactive: -2.71%
25,COc1cc(C2NCCC3(OCCO3)C2(C)C)cc(OC)c1OC (centres undefined),inactive: -0.347%

row,SMILES,inhibition
1,CCOP(=O)(Nc1cccc2ccccc12)OCC,inactive: -4.71%
2,CCCOP(=S)(Nc1nc(N)cc(=O)[nH]1)OCCC,inactive: -8.07%
3,Cc1ccc(NCCc2c([N+](=O)[O-])cc([N+](=O)[O-])cc2[N+](=O)[O-])cc1,inactive: 0.497%
4,Nc1ccccc1[As](=O)(O)c1ccccc1,inactive: -9.46%
5,O=C(O)COc1ccc([As](=O)(O)O)cc1[N+](=O)[O-],inactive: 3.6%
6,CS(=O)(=O)c1cc([N+](=O)[O-])c2no[n+]([O-])c2c1,active: 77.3%
7,CCOP1(=S)c2c(C)nn(CCC#N)c2N=C(c2ccccc2F)N1C (centres undefined),inactive: -5.98%
8,O=P(Nc1nccs1)(Oc1ccccc1)Oc1ccccc1,inactive: -1.68%
9,O=P(Nc1nccs1)(c1ccccc1)c1nc2ccccc2s1 (centres undefined),active: 91.5%
10,O=[N+]([O-])c1ccc2c(c1)nnn2O,inactive: -5.88%
11,CN(C)C(=O)c1cc([N+](=O)[O-])cc2c1-c1c(cc([N+](=O)[O-])cc1[N+](=O)[O-])C2=O,inactive: -5.03%
12,CN(C(=O)Cc1ccc(Cl)c(Cl)c1)[C@H]1CC[C@@]2(CCCO2)C[C@@H]1N1CCCC1,inactive: -10.3%
13,N#CCCN(C(=O)COC(=O)C(O)(c1ccccc1)c1ccccc1)c1ccc(F)cc1,inactive: -12.8%
14,CCOP1(=S)c2c(C)nn(CCC#N)c2N=C(c2ccc(F)cc2)N1C (centres undefined),inactive: -6.62%
15,CN(C(=O)Cc1ccccc1)[C@@H]1CC[C@]2(CCCO2)C[C@H]1N1CCCC1,inactive: -5.83%
16,NC(=O)Nc1ccc([As](=O)(O)O)cc1,inactive: 8.37%
17,O=C(/C=C/c1ccccc1)OC1CN2CCC1CC2 (centres undefined),inactive: -6.01%
18,CN(C)C1(CNC(=O)c2ccc(S(C)(=O)=O)cc2)CCCCC1,inactive: -4.39%
19,Cc1nn(-c2ccccc2)c2c1P(=O)(N1CCOCC1)N(C)C(c1ccccc1)=N2 (centres undefined),inactive: -0.838%
20,CC1CCC(C(C)C)C(OP(=O)(Nc2ccccn2)c2ccccc2)C1 (centres undefined),inactive: -9.69%
21,Cc1ccc(C(=O)OC2CN3CCC2CC3)cc1 (centres undefined),inactive: -1.65%
22,O=[As](O)(c1cccs1)c1cccs1,inactive: -5.54%
23,Cc1ccc(OCC(=O)OC2CN3CCC2CC3)cc1 (centres undefined),inactive: -2.04%
24,O=P1(Nc2ccc(Br)cn2)COc2ccccc2OC1,inactive: -4.56%
